In patent US20150020221A1:

Target: PARP1 (endogenous, Hela cell lysate) (human) (UniProt P09874)
Experiment: scanning densitometry of PARP1 immunoprecipitates from Hela cells (FIG. 4B)

fold increase co-immunoprecipitated with PARP1 (Dox-treated versus untreated cells): 1.8 fold
Substance: BBAP (endogenous, Hela cell lysate) (from UniProt Q8TDB6 2-740) (enzyme)
